Results on one compound are retold here after US6897237B2, “MMP-12 inhibitors” (Shionogi & Co. Ltd., priority 2000, dated 2005).

Protein sequences, listed by entry. Tags and fused reporters are not part of them. Residues count along the entry.
UniProt P03956, 100-469 limits assumed: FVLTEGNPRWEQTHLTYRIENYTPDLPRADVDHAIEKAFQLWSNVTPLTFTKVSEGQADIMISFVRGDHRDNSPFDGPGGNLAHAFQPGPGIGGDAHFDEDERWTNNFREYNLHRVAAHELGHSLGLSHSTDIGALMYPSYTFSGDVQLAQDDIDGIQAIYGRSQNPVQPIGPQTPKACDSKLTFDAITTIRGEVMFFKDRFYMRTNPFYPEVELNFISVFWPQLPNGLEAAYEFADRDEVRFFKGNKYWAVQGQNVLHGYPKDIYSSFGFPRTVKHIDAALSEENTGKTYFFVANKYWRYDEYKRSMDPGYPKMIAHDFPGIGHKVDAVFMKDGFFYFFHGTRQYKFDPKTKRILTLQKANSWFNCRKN
UniProt P39900, 100-263 limits assumed: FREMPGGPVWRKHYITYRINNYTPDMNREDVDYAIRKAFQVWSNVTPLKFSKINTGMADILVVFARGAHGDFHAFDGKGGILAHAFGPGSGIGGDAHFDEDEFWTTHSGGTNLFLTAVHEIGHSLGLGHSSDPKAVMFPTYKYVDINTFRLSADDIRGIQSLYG
UniProt P08253, 110-660 limits assumed: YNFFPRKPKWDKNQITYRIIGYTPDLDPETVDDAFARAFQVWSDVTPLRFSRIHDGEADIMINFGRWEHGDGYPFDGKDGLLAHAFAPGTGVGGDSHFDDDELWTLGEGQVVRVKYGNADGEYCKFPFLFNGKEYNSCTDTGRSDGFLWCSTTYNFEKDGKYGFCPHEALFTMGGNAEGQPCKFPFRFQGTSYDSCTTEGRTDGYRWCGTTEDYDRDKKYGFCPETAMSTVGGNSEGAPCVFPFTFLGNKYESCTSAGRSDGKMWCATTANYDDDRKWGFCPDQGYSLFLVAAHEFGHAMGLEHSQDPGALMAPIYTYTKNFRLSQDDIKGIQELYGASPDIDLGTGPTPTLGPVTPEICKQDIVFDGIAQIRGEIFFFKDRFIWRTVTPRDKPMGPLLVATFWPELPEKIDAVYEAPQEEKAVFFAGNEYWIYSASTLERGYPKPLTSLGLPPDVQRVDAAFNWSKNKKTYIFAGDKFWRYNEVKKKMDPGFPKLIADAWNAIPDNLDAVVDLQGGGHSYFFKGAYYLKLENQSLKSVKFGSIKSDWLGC
UniProt P14780, 107-707 limits assumed: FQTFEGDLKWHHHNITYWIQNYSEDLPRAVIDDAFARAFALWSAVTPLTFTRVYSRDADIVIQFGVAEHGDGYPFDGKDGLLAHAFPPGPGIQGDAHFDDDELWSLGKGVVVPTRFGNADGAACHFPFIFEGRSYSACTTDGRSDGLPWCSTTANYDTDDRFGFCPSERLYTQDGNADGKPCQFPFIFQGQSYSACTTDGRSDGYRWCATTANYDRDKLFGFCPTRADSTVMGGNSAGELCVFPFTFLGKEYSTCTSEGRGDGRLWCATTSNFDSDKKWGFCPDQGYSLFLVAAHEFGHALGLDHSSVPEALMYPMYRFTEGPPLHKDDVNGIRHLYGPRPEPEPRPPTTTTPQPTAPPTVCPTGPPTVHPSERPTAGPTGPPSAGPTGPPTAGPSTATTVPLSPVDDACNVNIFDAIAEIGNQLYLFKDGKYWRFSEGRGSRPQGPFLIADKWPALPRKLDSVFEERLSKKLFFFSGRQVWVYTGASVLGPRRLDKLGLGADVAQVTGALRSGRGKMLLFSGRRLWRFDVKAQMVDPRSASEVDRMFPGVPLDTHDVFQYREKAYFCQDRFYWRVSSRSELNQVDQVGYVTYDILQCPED
UniProt P22894, 99-262 limits assumed: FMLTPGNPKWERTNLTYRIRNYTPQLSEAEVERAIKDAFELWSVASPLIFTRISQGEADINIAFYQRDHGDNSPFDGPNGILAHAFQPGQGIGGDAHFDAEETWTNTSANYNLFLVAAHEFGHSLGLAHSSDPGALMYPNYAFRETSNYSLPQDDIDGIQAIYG

Assay [1] deals with MMP-1 (Homo sapiens, UniProt P03956). Nature of the assay: Assay for inhibitory activities on MMPs (fluorogenic peptide substrate): MMP-1. The conditions noted are these: read-out: MMP-1 inhibitory activity (IC50); substrate MOCAc-Pro-Leu-Gly-Leu-A2Pr(DNP)-Ala-Arg-NH2.
The target of assay [2] is MMP-12 catalytic domain (Homo sapiens, UniProt P39900). Nature of the assay: Assay for inhibitory activities on MMPs (fluorogenic peptide substrate): MMP-12. The following applies: read-out: MMP-12 inhibitory activity (IC50); substrate MOCAc-Pro-Leu-Gly-Leu-A2Pr(DNP)-Ala-Arg-NH2.
The target of assay [3] is MMP-13 catalytic domain (Homo sapiens, UniProt P45452). The assay can be described thus: Assay for inhibitory activities on MMPs (fluorogenic peptide substrate): MMP-13. The conditions noted are these: read-out: MMP-13 inhibitory activity (IC50); substrate MOCAc-Pro-Leu-Gly-Leu-A2Pr(DNP)-Ala-Arg-NH2.
The target of assay [4] is MMP-2 (Homo sapiens, UniProt P08253). The assay can be described thus: Assay for inhibitory activities on MMPs (fluorogenic peptide substrate): MMP-2. The format is biochemical. The conditions noted are these: read-out: MMP-2 inhibitory activity (IC50); substrate MOCAc-Pro-Leu-Gly-Leu-A2Pr(DNP)-Ala-Arg-NH2.
Assay [5] deals with MMP-9 (Homo sapiens, UniProt P14780). The assay can be described thus: Assay for inhibitory activities on MMPs (fluorogenic peptide substrate): MMP-9. The conditions noted are these: read-out: MMP-9 inhibitory activity (IC50); substrate MOCAc-Pro-Leu-Gly-Leu-A2Pr(DNP)-Ala-Arg-NH2.
In assay [6] the target is MMP-8 catalytic domain (Homo sapiens, UniProt P22894). Nature of the assay: Assay for inhibitory activities on MMPs (fluorogenic peptide substrate): MMP-8. The conditions noted are these: read-out: MMP-8 inhibitory activity (IC50); substrate MOCAc-Pro-Leu-Gly-Leu-A2Pr(DNP)-Ala-Arg-NH2.

Regarding `CSCC[C@@H](NS(=O)(=O)c1ccc(C#Cc2ccc3ccccc3c2)cc1)C(=O)O`, the IC50 (usually the concentration that inhibits the measured activity by half) was above 10000 nM in assay [1]; 10 nM in assay [2]; 370 nM in assay [3]; 110 nM in assay [4]; 620 nM in assay [5]; 1320 nM in assay [6].
